Measured values: publication PMC10044640, “Antimicrobial Peptides Designed against the Ω-Loop of Class A β-Lactamases to Potentiate the Efficacy of β-Lactam Antibiotics” (Antibiotics, 2023)
Read-outs that look alike come from different tables or passages of the source.

Columns and labels:
[1] = system: E. coli CS109 + pBAD-SHV-14; format: cell-based, Escherichia coli; settings: CS109 + pBAD-SHV-14, no peptide; broth microdilution, MHB, ~10^5 cells/well, OD600
[2] = system: E. coli CS109 + pBAD-SHV-14; format: cell-based, Escherichia coli; settings: E. coli CS109 + pBAD-SHV-14 (arabinose-induced), no peptide; HT-SPOTi

Q: With CC1(C)S[C@@H]2[C@H](NC(=O)[C@H](N)c3ccc(O)cc3)C(=O)N2[C@H]1C(=O)O [Amx, Amoxicillin] as the compound, how does the “MIC Value of Antibiotics, β-lactam alone” value [1] read?
A: Its value is 125 µg/mL.

Q: And the “MIC Value of Antibiotics, β-lactam alone” value [2]?
A: Its value is 125 µg/mL.
